This passage reports Ki results from PMC4741889, “Ligand-based chemoinformatic discovery of a novel small molecule inhibitor targeting CDC25 dual specificity phosphatases and displaying in vitro efficacy against melanoma cells” (Oncotarget, 2015).

One assay deals with T1, CDC25A (Homo sapiens, UniProt P30304).
T1 construct: Recombinant forms of the catalytic domains of CDC25A, -B and -C were obtained through the vectors pET28a-CDC25A-cd, pET28a-CDC25B-cd and pET28a-CDC25C-cd; made in house
T1 sequence (P30304 376-482 limits assumed): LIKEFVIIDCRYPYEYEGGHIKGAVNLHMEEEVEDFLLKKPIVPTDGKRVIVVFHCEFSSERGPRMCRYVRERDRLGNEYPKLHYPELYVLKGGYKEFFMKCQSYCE
Description: Ki from OMFP hydrolysis kinetics (Lineweaver-Burk), CDC25A. The class given is biochemical. The following applies: 20 nM CDC25A, 1–25 μM OMFP; mean ± S.E. As to the method:
To measure the inhibition constant (Ki) of the recombinant forms of CDC25A, -B and -C towards the various inhibitors, the affinity of the different forms of CDC25 towards OMFP was measured either in the absence or in the presence of fixed concentrations of the various inhibitors. The reaction mixture contained 20 nM CDC25A, or 10 nM CDC25B, or 40 nM CDC25C, and different concentrations of the various inhibitors in 500 μL final volume of 20 mM Tris-HCl, pH 7.8, 1 mM DTT. DMSO was used as vehicle control. […] The corresponding Lineweaver-Burk plots allowed the calculation of the KM for OMFP and of the Vmax of OMFP hydrolysis, expressed as a.u./minmax. […] The Ki values were obtained from the decrease of a.u./minmax in the presence of the inhibitor, according to the equation a.u./mimmax’ = a.u./mimmax/{1 + ([I]/Ki)}, where a.u./mimmax’ represents the Vmax measured in the presence of the concentration [I] of the inhibitor. The Ki values were obtained from at least three independent experiments and reported as mean ± S.E.

The next assay addresses T2, CDC25B (Homo sapiens, UniProt P30305).
T2 construct: Recombinant forms of the catalytic domains of CDC25A, -B and -C were obtained through the vectors pET28a-CDC25A-cd, pET28a-CDC25B-cd and pET28a-CDC25C-cd; made in house
T2 sequence (P30305 431-538 limits assumed): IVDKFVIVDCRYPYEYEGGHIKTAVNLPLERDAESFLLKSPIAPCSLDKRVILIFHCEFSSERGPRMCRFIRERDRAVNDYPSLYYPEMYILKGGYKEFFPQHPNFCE
Description: Ki from OMFP hydrolysis kinetics (Lineweaver-Burk), CDC25B. To be noted: 10 nM CDC25B, 1–25 μM OMFP; mean ± S.E. The assay is classed as biochemical. As to the method: The inhibition properties of the effective inhibitors were better investigated through the kinetic measurement of their Ki values.
To measure the inhibition constant (Ki) of the recombinant forms of CDC25A, -B and -C towards the various inhibitors, the affinity of the different forms of CDC25 towards OMFP was measured either in the absence or in the presence of fixed concentrations of the various inhibitors. The reaction mixture contained 20 nM CDC25A, or 10 nM CDC25B, or 40 nM CDC25C, and different concentrations of the various inhibitors in 500 μL final volume of 20 mM Tris-HCl, pH 7.8, 1 mM DTT. DMSO was used as vehicle control. The reaction started by the addition of 1–25 μM OMFP, and the rate of OMFP hydrolysis was measured as indicated before. The corresponding Lineweaver-Burk plots allowed the calculation of the KM for OMFP and of the Vmax of OMFP hydrolysis, expressed as a.u./minmax. […] The Ki values were obtained from the decrease of a.u./minmax in the presence of the inhibitor, according to the equation a.u./mimmax’ = a.u./mimmax/{1 + ([I]/Ki)}, where a.u./mimmax’ represents the Vmax measured in the presence of the concentration [I] of the inhibitor. The Ki values were obtained from at least three independent experiments and reported as mean ± S.E.

The term Ki denotes the dissociation constant of the complex between target and ligand, obtained from inhibition or displacement. On to `O=C(O)CCc1c2ccc(=O)c(O)c-2oc2c(O)c(O)ccc12` [NSC 119915, reference compound], for which the inhibition constant (Ki) on CDC25A was found to be 340 ± 120 nM; on CDC25B, 100 ± 40 nM.
